Assay results taken from ChEMBL document CHEMBL1140509, “Rynaxypyr: a new insecticidal anthranilic diamide that acts as a potent and selective ryanodine receptor activator” (Bioorg Med Chem Lett, 2007).

Columns and labels:
Assay type in all cases: cell-based
PC-12 [1] = experiment: Selectivity for Drosophila melanogaster ryanodine receptor over rat ryanodine receptor in PC12 cells
PC-12 [2] = experiment: Selectivity for Heliothis virescens recombinant ryanodine receptor over rat ryanodine receptor in PC12 cells
C2C12 [3] = experiment: Selectivity for Heliothis virescens recombinant ryanodine receptor over mouse ryanodine receptor in C2C12 cells
C2C12 [4] = experiment: Selectivity for Drosophila melanogaster ryanodine receptor over mouse ryanodine receptor in C2C12 cells

Compound `CNC(=O)c1cc(Cl)cc(C)c1NC(=O)c1cc(Br)nn1-c1ncccc1Cl` [CHLORANTRANILIPROLE] has a Selectivity ratio (PC-12 [1]) greater than 2000, a Selectivity ratio (PC-12 [2]) greater than 2000 and a Selectivity ratio (C2C12 [3]) of 300. The Selectivity ratio (C2C12 [4]) was 300.
